Yeast mating assay 2: variants of the scFv Ab-95

The measurements come from Engelhart et al. 2022 (doi:10.1038/s41597-022-01779-4) through the FLAb antibody collection.

Target: peptide PDVDLGDISGINAS, taken from heptad repeat 2 (HR2) of SARS-CoV-2 spike.

The variants keep the heavy chain, the linker and the frameworks of Ab-95 (scFv order VH, a (GGGGS)3 linker, VL).
VH: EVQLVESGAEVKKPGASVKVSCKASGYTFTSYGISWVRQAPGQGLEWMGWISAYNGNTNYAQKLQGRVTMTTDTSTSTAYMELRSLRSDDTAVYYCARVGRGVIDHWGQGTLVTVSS
VL: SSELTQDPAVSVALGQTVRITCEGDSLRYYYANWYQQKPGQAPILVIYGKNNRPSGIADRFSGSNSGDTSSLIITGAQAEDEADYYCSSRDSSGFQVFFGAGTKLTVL

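Phage display of a naive human antibody library on the peptide gave the parent. Library AAYL52 holds single substitutions and randomly drawn double and triple substitutions in the CDRs. The scFvs were displayed on barcoded MATa yeast, the peptide on MATalpha yeast. Mating (16 h, 30 °C) was followed by selection of diploids and sequencing of their barcodes. A regression on co-assayed BCL2-family reference pairs converts the normalised counts of each replicate to an apparent Kd. Mating was done three times.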

Positions count from residue 1 of the parent VL; D91I puts I in place of D.
All variants listed here change Q96 of the VL, counted from its first residue.
Numbers give log10(Kd / nM), so 0 is 1 nM and 3 is 1 µM. Smaller is tighter.
The mean shown is taken over the replicates in which the pair was detected.
A pair that was not seen in any replicate is written "no signal"; this usually means weak binding, but a binder can also be missed.
Background: pairings of library AAYL52 with three empty control strains gave a value in 28% of cases (median 3.91, 5th percentile 2.90). Values in that range, when seen in few replicates, are hard to tell from nonspecific mating.

For D91I/G94K/Q96W, the assay gave 2.39 (3 of 3 replicates).
For Y29V/Y30K/Q96P, the assay gave 3.12 (3 of 3 replicates).
For G24R/G94F/Q96P, the assay gave 4.01 (3 of 3 replicates).
For N51Q/R53V/Q96S, the assay gave 4.48 (2 of 3 replicates).
For K50V/R53T/Q96L, the assay gave 3.33 (1 of 3 replicates).
For Y29C/N52Y/Q96C, the assay gave 2.97 (3 of 3 replicates).
For G24Q/K50D/Q96I, the assay gave 3.58 (1 of 3 replicates).
For D91W/S93V/Q96T, the assay gave 2.70 (3 of 3 replicates).
For D25V/S93Y/Q96A, the assay gave 2.15 (3 of 3 replicates).
For N33L/N51I/Q96S, the assay gave 4.42 (2 of 3 replicates).
For N33E/S93P/Q96Y, the assay gave 4.33 (2 of 3 replicates).
For A32N/Q96Y/V97K, the assay gave no signal (0 of 3 replicates).
For A32R/R90L/Q96C, the assay gave 4.26 (2 of 3 replicates).
For S89M/Q96H, the assay gave 2.90 (3 of 3 replicates).
For S26L/Q96D, the assay gave 3.72 (2 of 3 replicates).
For S93T/Q96K/F98G, the assay gave 2.46 (3 of 3 replicates).
For N52G/F95K/Q96K, the assay gave 3.37 (2 of 3 replicates).
For S26A/G94E/Q96Y, the assay gave 2.98 (3 of 3 replicates).
For Y31P/Q96R, the assay gave 1.40 (3 of 3 replicates).
For S89Q/Q96T/F98K, the assay gave 2.76 (3 of 3 replicates).
For P54D/G94Q/Q96H, the assay gave 3.04 (3 of 3 replicates).
For K50R/S93G/Q96H, the assay gave 3.42 (3 of 3 replicates).
For K50A/G94V/Q96F, the assay gave 2.36 (3 of 3 replicates).
For N33A/F95M/Q96I, the assay gave no signal (0 of 3 replicates).
For D25W/Y29V/Q96A, the assay gave 3.53 (2 of 3 replicates).
For K50H/Q96P/F98T, the assay gave 3.35 (3 of 3 replicates).
For N33V/G49M/Q96G, the assay gave 4.79 (2 of 3 replicates).
For R90V/Q96N/V97D, the assay gave 2.63 (3 of 3 replicates).
For A32R/S55M/Q96R, the assay gave 3.33 (1 of 3 replicates).
For N52D/Q96D/F98A, the assay gave 2.30 (3 of 3 replicates).
For N33F/S89T/Q96D, the assay gave 4.75 (2 of 3 replicates).
For D25L/Y31D/Q96N, the assay gave 1.43 (3 of 3 replicates).
For D25C/F95P/Q96R, the assay gave no signal (0 of 3 replicates).
For D25M/Q96N, the assay gave 2.32 (3 of 3 replicates).
For L27N/Q96N/V97R, the assay gave 4.40 (3 of 3 replicates).
For G24N/Q96D/F98W, the assay gave 3.71 (2 of 3 replicates).
For Y31C/Q96E, the assay gave 3.04 (3 of 3 replicates).
For S93D/F95C/Q96K, the assay gave 3.62 (1 of 3 replicates).
For L27G/Y31V/Q96V, the assay gave 4.16 (3 of 3 replicates).
For D25L/Y31L/Q96S, the assay gave 3.42 (3 of 3 replicates).
For G94E/F95N/Q96A, the assay gave 3.52 (2 of 3 replicates).
For A32G/Q96V/V97Y, the assay gave 3.69 (2 of 3 replicates).
For S92N/Q96T/F98Q, the assay gave 3.10 (3 of 3 replicates).
For Y31S/G94K/Q96W, the assay gave 1.42 (3 of 3 replicates).
For R28F/N52S/Q96R, the assay gave 3.60 (3 of 3 replicates).
For S92H/F95Q/Q96W, the assay gave 2.24 (3 of 3 replicates).
For K50T/S89Y/Q96D, the assay gave 2.98 (3 of 3 replicates).
For R53W/F95E/Q96W, the assay gave 4.95 (2 of 3 replicates).